# Laboratory results reported in PubChem BioAssay AID729 (The Scripps Research Institute Molecular Screening Center, 2007).
# Amino acid sequences for entries named in this document (tags omitted). A change or cut given only in a name is not applied to a line headed by its entry.
# UniProt O95136: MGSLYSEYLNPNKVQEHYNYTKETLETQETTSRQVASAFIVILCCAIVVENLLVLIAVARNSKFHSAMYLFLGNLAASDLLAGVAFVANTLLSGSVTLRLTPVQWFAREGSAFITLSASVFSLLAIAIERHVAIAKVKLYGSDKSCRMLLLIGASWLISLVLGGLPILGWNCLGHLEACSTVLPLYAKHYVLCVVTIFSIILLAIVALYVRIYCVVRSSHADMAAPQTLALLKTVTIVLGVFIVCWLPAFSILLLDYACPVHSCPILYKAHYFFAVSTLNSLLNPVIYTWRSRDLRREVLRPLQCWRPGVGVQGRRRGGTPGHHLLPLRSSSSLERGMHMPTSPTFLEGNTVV
# Only a part is listed here, and it is no random draw. Active and inactive are the calls of the source. Cut-off read from the data, not from the text of the source: active = activation above about 16%; inactive = the rest.
# Molecular target: Sphingosine 1-phosphate receptor 2 (Homo sapiens) (UniProt O95136)
# Experiment: activation of human S1P2 receptor – cell-based, primary screen (AID 729);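 note: 0% = vehicle low control and 100% = maximal reference agonist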
# Conditions: S1P2-expressing cell line, agonist reporter read-out; at 4.5 µM; active compounds read high
row,SMILES,activation
1,CC1(CBr)Cn2c(nc3ccccc3c2=O)S1 (stereo not drawn),inactive: -4.39%
2,O=P1(Nc2ccccn2)COc2ccccc2OC1,inactive: -4.06%
3,Clc1n[nH]nc1-c1nn[nH][15n]1,inactive: -4.35%
4,O=P1(Nc2ncccn2)COc2ccccc2OC1,inactive: -2.42%
5,Cc1ccc(OCC(=O)OC2CN3CCC2CC3)cc1 (stereo not drawn),inactive: -3.71%
6,O=P1(Nc2ccc(Br)cn2)COc2ccccc2OC1,inactive: -6.88%
7,Cc1nn(-c2ccccc2)c2c1P(=O)(N1CCOCC1)N(C)C(c1ccccc1)=N2 (stereo not drawn),inactive: -2.9%
8,O=[N+]([O-])c1ccc2c(c1)nnn2O,inactive: -0.78%
9,CCOP1(=S)c2c(C)nn(CCC#N)c2N=C(c2ccc(F)cc2)N1C (stereo not drawn),inactive: -2.1%
10,CCOP1(=S)c2c(C)nn(CCC#N)c2N=C(c2ccccc2F)N1C (stereo not drawn),inactive: -0.85%
11,Cc1cccc(OCC(=O)OC2CN3CCC2CC3)c1 (stereo not drawn),inactive: 0.46%
12,O=C(OC1CN2CCC1CC2)C12CC3CC(CC(C3)C1)C2 (stereo not drawn),inactive: -1.57%
13,ClCCSc1nnc(-c2cccnc2)o1,inactive: -3.91%
14,CCN(CC)C(=S)SC(NC=O)C(Cl)(Cl)Cl (stereo not drawn),inactive: -3.47%
15,CCC(C)N(CC(C)C)C(=S)SC(NC(C)=O)C(Cl)(Cl)Cl (stereo not drawn),inactive: -4.17%
16,COP1(=S)c2c(C)nn(CCC#N)c2N=C(c2ccc(F)cc2)N1C (stereo not drawn),inactive: -3.01%
17,O=C(COc1ccccc1)OC1CN2CCC1CC2 (stereo not drawn),inactive: -1.84%

row,SMILES,activation
1,CC1CCN(C(=O)Oc2c(Cl)cc(Cl)c3cccnc23)CC1,inactive: 1.06%
2,O=[N+]([O-])c1cccc2n[nH]nc12,inactive: -3.36%
3,CC(=O)N1C2C3N(C(C)=O)C1C1N(C(C)=O)C(C(N1C(C)=O)N3C(C)=O)N2C(C)=O,inactive: -2.24%
4,CCc1nc2c(n1)c1c(non1O)c1c2no[n+]1[O-],inactive: -9.99%
5,CCOP(=O)(Nc1ccccc1)OCC,inactive: -3.79%
6,CC(C)CC(=O)NC(Sc1ccc(Cl)cc1)C(Cl)(Cl)Cl (stereo not drawn),inactive: -4.26%
7,Oc1ccccc1CNc1ccccn1,inactive: -1.99%
8,Cc1c2non([O-])c-2c(C)[n+](=O)[n+]1[O-],inactive: 1.69%
9,CN1CCCC(OC(=O)C(c2ccccc2)c2ccccc2)C1 (stereo not drawn),inactive: -3.37%
10,O=P1(Nc2nc3ccc(Cl)cc3s2)COc2ccccc2O1 (stereo not drawn),inactive: -3.09%
11,COC(=O)c1cc2c(s1)N=C(c1ccccc1)N(C)P2(=O)N1CCOCC1 (stereo not drawn),inactive: 0.66%
12,CCC(=O)N1C2C3N(C(=O)CC)C1C1N(C(=O)CC)C(C(N1C(=O)CC)N3C(=O)CC)N2C(=O)CC,inactive: -3.81%
13,CCOC(=O)NC(Sc1ccccc1)C(Cl)(Cl)Cl (stereo not drawn),inactive: -11.1%
14,O=C(OC1CN2CCC1CC2)c1cccc(Cl)c1 (stereo not drawn),inactive: -4.38%
15,O=P(Nc1nccs1)(c1ccccc1)c1ccccc1,inactive: -0.61%
16,c1nnnn1CCn1cnnn1,inactive: -3.65%
